The text below walks through data of patent publication US8927501B2, “αvβ6 peptide ligands and their uses” (priority 2005, dated 2015).

By UniProt entry, the sequences of proteins in these tests, tags left out. Residues count along the entry.
UniProt P06756, 31-992 limits assumed: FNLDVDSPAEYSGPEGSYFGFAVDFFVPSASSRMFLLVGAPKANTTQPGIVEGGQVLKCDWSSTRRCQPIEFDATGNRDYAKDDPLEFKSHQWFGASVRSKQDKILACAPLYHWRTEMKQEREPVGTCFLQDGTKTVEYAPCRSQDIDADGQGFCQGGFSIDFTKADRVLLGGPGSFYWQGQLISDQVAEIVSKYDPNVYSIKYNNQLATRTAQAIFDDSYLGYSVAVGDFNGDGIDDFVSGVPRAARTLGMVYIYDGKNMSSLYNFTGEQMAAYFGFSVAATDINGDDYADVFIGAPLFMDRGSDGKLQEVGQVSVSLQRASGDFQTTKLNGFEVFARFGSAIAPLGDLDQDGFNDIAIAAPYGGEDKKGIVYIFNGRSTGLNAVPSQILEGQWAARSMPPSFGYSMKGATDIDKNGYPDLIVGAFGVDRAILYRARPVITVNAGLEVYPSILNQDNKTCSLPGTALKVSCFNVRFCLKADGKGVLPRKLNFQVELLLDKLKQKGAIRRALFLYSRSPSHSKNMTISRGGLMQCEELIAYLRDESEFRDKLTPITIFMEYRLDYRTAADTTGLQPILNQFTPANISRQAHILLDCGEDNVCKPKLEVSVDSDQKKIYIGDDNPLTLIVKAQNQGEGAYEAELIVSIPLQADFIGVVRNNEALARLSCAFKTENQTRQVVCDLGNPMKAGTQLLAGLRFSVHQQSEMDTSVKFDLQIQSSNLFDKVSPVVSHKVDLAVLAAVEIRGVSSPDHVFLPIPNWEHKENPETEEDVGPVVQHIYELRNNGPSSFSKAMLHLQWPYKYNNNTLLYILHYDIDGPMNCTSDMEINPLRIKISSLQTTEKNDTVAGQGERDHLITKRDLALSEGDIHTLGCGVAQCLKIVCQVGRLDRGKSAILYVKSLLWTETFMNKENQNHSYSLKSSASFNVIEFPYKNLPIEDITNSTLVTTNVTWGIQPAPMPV
UniProt P06756, 31-1048: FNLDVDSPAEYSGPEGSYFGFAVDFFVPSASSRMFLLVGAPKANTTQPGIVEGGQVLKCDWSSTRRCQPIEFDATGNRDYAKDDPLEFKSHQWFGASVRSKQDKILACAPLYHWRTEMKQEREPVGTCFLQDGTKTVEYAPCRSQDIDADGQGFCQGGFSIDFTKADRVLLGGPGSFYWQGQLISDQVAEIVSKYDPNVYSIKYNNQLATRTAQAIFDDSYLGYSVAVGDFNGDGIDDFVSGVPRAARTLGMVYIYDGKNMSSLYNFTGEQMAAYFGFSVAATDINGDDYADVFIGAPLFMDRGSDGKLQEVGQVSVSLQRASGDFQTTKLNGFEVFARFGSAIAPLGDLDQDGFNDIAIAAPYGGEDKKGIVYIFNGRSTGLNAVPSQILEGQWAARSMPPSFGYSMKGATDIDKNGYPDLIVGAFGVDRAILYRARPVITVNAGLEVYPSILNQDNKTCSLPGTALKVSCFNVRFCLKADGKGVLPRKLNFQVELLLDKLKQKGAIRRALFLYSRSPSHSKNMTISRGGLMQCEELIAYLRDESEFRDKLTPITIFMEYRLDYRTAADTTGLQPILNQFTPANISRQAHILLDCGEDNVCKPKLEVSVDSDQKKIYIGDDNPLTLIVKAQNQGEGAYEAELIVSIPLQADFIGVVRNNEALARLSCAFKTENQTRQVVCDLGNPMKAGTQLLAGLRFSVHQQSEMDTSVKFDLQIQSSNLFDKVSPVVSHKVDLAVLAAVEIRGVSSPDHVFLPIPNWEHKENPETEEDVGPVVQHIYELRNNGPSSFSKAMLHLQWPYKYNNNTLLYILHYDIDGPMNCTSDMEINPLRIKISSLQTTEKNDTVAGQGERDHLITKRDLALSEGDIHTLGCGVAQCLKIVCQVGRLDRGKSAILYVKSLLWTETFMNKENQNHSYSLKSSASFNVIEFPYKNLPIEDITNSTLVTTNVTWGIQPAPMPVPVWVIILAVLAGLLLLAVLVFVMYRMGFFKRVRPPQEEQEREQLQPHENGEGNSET
UniProt P18564, 22-709 limits assumed: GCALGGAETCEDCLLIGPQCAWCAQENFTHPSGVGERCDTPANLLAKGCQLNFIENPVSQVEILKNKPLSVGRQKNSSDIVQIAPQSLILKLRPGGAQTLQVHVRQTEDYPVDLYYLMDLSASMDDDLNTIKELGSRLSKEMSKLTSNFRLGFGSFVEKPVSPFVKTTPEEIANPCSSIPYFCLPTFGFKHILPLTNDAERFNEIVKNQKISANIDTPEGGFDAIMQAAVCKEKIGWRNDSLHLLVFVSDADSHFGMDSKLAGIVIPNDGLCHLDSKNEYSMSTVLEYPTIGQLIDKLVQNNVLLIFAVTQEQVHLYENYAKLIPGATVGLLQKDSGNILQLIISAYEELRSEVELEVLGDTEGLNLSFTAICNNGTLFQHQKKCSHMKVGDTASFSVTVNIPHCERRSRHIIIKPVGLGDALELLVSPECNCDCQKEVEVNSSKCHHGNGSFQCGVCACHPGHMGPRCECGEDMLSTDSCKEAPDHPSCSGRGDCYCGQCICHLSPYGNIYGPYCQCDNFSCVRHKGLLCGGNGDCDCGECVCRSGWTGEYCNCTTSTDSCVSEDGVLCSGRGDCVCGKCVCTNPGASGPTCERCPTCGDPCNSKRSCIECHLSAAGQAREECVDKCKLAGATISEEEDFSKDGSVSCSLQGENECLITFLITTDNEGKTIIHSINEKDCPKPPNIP
UniProt P18564, 22-788: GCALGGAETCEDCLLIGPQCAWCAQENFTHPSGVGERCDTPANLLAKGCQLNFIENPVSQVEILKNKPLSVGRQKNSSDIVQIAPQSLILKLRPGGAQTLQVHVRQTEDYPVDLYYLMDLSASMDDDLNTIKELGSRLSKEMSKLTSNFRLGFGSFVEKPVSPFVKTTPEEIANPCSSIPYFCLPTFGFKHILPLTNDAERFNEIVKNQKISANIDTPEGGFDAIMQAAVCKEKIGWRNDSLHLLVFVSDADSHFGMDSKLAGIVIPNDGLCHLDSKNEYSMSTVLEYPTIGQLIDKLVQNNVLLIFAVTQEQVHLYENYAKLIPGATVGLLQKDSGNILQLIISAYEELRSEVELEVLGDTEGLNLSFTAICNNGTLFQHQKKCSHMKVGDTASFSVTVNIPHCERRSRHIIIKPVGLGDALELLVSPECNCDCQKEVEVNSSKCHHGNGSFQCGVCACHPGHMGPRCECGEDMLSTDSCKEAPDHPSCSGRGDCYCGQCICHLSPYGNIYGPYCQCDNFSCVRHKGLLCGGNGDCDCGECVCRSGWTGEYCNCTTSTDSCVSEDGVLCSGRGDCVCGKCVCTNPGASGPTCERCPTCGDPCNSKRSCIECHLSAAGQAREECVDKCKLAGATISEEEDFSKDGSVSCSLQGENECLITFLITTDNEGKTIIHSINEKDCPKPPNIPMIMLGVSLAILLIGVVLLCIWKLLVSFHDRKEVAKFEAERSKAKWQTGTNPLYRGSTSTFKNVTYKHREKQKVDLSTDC

Each structure is given as a SMILES string.

One assay addresses rsαvβ6 (Homo sapiens, UniProt P06756+P18564). The assay can be described thus: biochemical. It is filed as binding.
For another assay, the target named is T1, αvβ6 (Homo sapiens, UniProt P06756+P18564).
T1 construct: endogenous in cells; host or cells: VB6 human oral squamous cell carcinoma
The assay can be described thus: Cell adhesion assay: αvβ6-dependent adhesion of VB6 cells to LAP. Format: cell-based.

As to `CC(C)C[C@H](NC(=O)[C@H](CC(=O)O)NC(=O)CNC(=O)[C@H](CCCNC(=N)N)NC(=O)[C@H](CC(C)C)NC(=O)[C@H](CC(N)=O)NC(=O)[C@@H]1CCCN1C(=O)[C@@H](NC(=O)[C@H](C)NC(=O)[C@@H](N)CC(N)=O)C(C)C)C(=O)N[C@@H](CCC(N)=O)C(=O)N[C@H](C(=O)N[C@@H](CC(C)C)C(=O)N[C@@H](C)C(=O)N[C@@H](CCC(N)=O)C(=O)N[C@@H](CCCCN)C(=O)N[C@H](C(=O)N[C@@H](C)C(=O)N[C@@H](CCCNC(=N)N)C(=O)N[C@H](C(=O)O)[C@@H](C)O)C(C)C)C(C)C` [A20FMDV2], the IC50 on rsαvβ6 stood at 15.6 nM; against αvβ6, 1540 ± 400 nM.
